Experiments:
Assay type in all cases: cell-based
[1] = tested on: BXPC-3 epithelial human pancreatic adenocarcinoma cells; test: Cell growth assay (SRB) in BXPC-3; details: for IC50: 4-N-acyl and 4-N-phosphoryl derivatives (Table 4); for Ratio of IC50 in the presence of dipyridamole / IC50 in the absence of dipyridamole: 4-N-acyl and 4-N-phosphoryl derivatives (Table 5)
Description: (§1) Biological activities of the Gemcitabine derivative (which may be referred to as analogues) described above were evaluated with two assays: • 1. Cell growth assay using the SRB assay in cell lines A549/WT, SW1573/WT, PANC-01 and BXPC-3. • 2. MTT assay in human bladder cancer cell line T-24
(§2) The following cell lines were tested: • A549/WT —wild type human lung adenocarcinoma cell line (1) • SW1573/WT —wild type non-small lung human cell line (2), • PANC-01—human pancreatic cancer cell line (3) • BXPC-3 -epithelial human pancreatic adenocarcinoma cells (4).
(§3) Dipyridamole inhibits adenosine uptake by erythrocytes platelets and endothelial cells in vitro and in vivo. Thus, the present inventors recruited dipyridamole as an inhibitor of the nucleoside transporters of the tumour cells to observe the behaviour of the presently described Gemcitabine derivatives.
(§4) From the IC50 of each compound in the presence of dipyridamole, by dividing it with the IC50 of each compound in the absence of dipyridamole, the present inventors calculated a ratio that compared the efficacy of the analogous presence of dipyridamole.
(§5) Ratio=IC50 in the presence of dipyridamole/IC50 in the absence of dipyridamole • FIG. 10. Ratio of IC50 of 4-N-acyl and 4-N-phosphoryl derivatives in the presence of, compared to in the absence of, dipyridamole, in four cell lines

[2] = tested on: SW1573/WT wild type non-small lung human cell line; test: Cell growth assay (SRB) in SW1573/WT; details: SW 1573/WT; for IC50: 4-N-acyl and 4-N-phosphoryl derivatives (Table 4); for Ratio of IC50 in the presence of dipyridamole / IC50 in the absence of dipyridamole: 4-N-acyl and 4-N-phosphoryl derivatives (Table 5)
Description: as §1, §2, §3, §4, §5

[3] = tested on: PANC-01 human pancreatic cancer cell line; test: Cell growth assay (SRB) in PANC-01; details: for IC50: 4-N-acyl and 4-N-phosphoryl derivatives (Table 4); for Ratio of IC50 in the presence of dipyridamole / IC50 in the absence of dipyridamole: 4-N-acyl and 4-N-phosphoryl derivatives (Table 5)
Description: as §1, §2, §3, §4, §5

[4] = tested on: A549/WT wild type human lung adenocarcinoma cell line; test: Cell growth assay (SRB) in A549/WT; details: for IC50: 4-N-acyl and 4-N-phosphoryl derivatives (Table 4); for Ratio of IC50 in the presence of dipyridamole / IC50 in the absence of dipyridamole: 4-N-acyl and 4-N-phosphoryl derivatives (Table 5)
Description: as §1, §2, §3, §4, §5

`CCOP(=O)(Nc1ccn(C2OC(CO)C(O)C2(F)F)c(=O)n1)OCC` (stereo not shown) was tested, and the IC50 [1] was 190 nM, the “Ratio of IC50 in the presence of dipyridamole / IC50 in the absence of dipyridamole” value [1] was 13 and the IC50 [2] was 240 nM. For the same compound, the “Ratio of IC50 in the presence of dipyridamole / IC50 in the absence of dipyridamole” value [2] was 10, the IC50 [3] was 820 nM and the “Ratio of IC50 in the presence of dipyridamole / IC50 in the absence of dipyridamole” value [3] was 3. For the same compound, the IC50 [4] was 400 nM and the “Ratio of IC50 in the presence of dipyridamole / IC50 in the absence of dipyridamole” value [4] was 6.2.
In the case of `O=c1nc(NP(=O)(O)O)ccn1C1OC(CO)C(O)C1(F)F` (stereo not shown), the IC50 [1] is reported as 14 nM, the “Ratio of IC50 in the presence of dipyridamole / IC50 in the absence of dipyridamole” value [1] is reported as 50 and the IC50 [2] is reported as 14 nM. The “Ratio of IC50 in the presence of dipyridamole / IC50 in the absence of dipyridamole” value [2] was 50, the IC50 [3] was 55 nM and the “Ratio of IC50 in the presence of dipyridamole / IC50 in the absence of dipyridamole” value [3] was 123. The IC50 [4] was 16 nM and the “Ratio of IC50 in the presence of dipyridamole / IC50 in the absence of dipyridamole” value [4] was 41.
